Measured values as given in US11795144B2, “Inhibitors of RAC1 and uses thereof for treating cancers” (INSTITUT NATIONAL DE LA SANTE ET DE LA RECHERCHE MEDICALE …, priority 2017, dated 2023).

How the values were obtained:
Rac = Rac activator-induced membrane ruffling (actin reorganization) in 3T3 fibroblasts; type: cell-based; conditions: 3T3 cells, compound added 1 h before Rac activation
Description: (§1) FIGS. 1 to 3 relate to the inhibition of the Rac-induced cell functions by compound (2) (or A4.1). […] 3T3 cells were incubated in serum-free growth medium, either alone, or supplemented with (2) or NSC23766 at indicated concentration 1 h before Rac activation. Ruffles are indicated by arrows (left panel). Percentages of cells with ruffles were quantified (right panel). Results shown are representative of 3 independent experiments. […] 3T3 cells were incubated or not with (2) or NSC23766. Left panel, representative records with arrows indicating the cell location at different times. Right panel, quantification of cell speed in each experimental conditions. Results shown are representative of 2 independent experiments. […] Upper panel, representative kinetics of fibroblast adhesion pre-treated or not with 10 μm (2) or NSC23766. Lower panel, quantification of cell adhesion. Results shown are representative of 3 independent experiments.
cDNA coding for constitutive active Rac1 (Rac^V12-RFP) were transfected in NIH3T3 with jetPEI (Polyplus transfection) according to the manufacturer's instructions. […] After staining, images were captured by a fluorescence microscope (Nikon). The actin cytoskeleton organization was analyzed to observe Rac1-dependent ruffle formation.

3T3 cells = test: Unidirectional cell migration (cell speed); type: cell-based
Description: as §1
Cells (1000/well) were seeded in a 96 well plate with […] fibronectin stripes (CytooPlates Motility, CYTOO) in medium with 1% SVF and allowed to spread for 4 hours before capturing time-lapse images for 24 hours (image/10 minutes) on a Widefield Leica DMI 6000B drove with Metamorph software. Cells speed was measured with ImageJ software.

`CCN(CC)CCCC(C)Nc1nc(C)cc(Nc2ccc3nc(C)cc(N)c3c2)n1` (centres unmarked) [NSC23766, reference compound] was tested, and the “Efficiency of Rac activator to induce ruffle / actin reorganization” value (Rac) was “strongly decreased” and the “Cell migration (cell speed)” value (3T3 cells) was “slow down”.
